Measured values from patent US11959104B2, “Methods of differentiating stem cell-derived ectodermal lineage precursors” (MEMORIAL SLOAN-KETTERING CANCER CENTER, priority 2016, dated 2024).

Columns and labels:
Format in all cases: cell-based, human
pituitary-lineage cells [1] = assay: Dorsal-ventral patterning of pituitary cells, single cell qRT-PCR
Experimental: (§1) For standard (unless mentioned otherwise in the text) pituitary maturation, medium on day 30 was changed to “E6 only” for additional 30 days. For patterning experiments (indicated in the text) E6 medium was supplemented with either high concentrations of FGF8 (100 ng/ml, dorsalize), high concentrations of BMP2 (20 ng/ml, ventralize) or intermediate concentrations of both (FGF8 50 ng/ml, BMP2 10 ng/ml).
For single cell PCR analysis cells were detached using Accutase. After filtering through a 40 μm cell strainer DAPI negative cells were sorted on a BDFACS Aria III machine, essentially cleaning up the cell preparation of debris and dead cells. Sorted cell suspension was adjusted to a concentration of 400 000 cells/ml. Single cells were captured using the Fluidigm C1 system according to the manufactures manual. Capture rate of for each C1 chip was confirmed microscopically using a standard tissue culture bright flied microscope. Capture rates were as follows: day 30: 91% (87/96) day 60: 94% (90/96) day 60 FGF8: 93% (89/96) day 60 FGF8/BMP2: 89% (85/96) day 60 BMP2: 93% (89/96). Cells were lysed, RNA was extracted and transcribed into cDNA using the C1 in combination with wet-lab tested Fluidigm DELTAgene assays (FIG. 27) following the manufactures protocol. Wet-lab tested DELTAgene assays were purchased directly from Fluidigm. The resulting cDNA was diluted 1:5 and subjected to Single cell PCR amplification using the Fluidigm BioMark system in combination with EvaGreen chemistry according to the manufactures manual (“Fast Gene Expression Analysis Using EvaGreen on the BioMark or BioMark HD System”). PCR was run using a Fluidigm 96.96 Dynamic Array. Each primer pair was run in technical duplicates on the chip. […] Expression data was analyzed using the Fluidigm Real-Time PCR analysis software in combination with the Fluidigm SINGuLAR Analysis Toolset for R (Version 3.0.2 (2013-09-25) “Frisbee Sailing”).

pituitary-lineage cells [2] = assay: Dorsal-ventral patterning of pituitary cells, immunofluorescence quantification; conditions: day 60
Experimental: as §1
After washing the cells once with PBS, cells were fixed with 4% (v/v) paraformaldehyde for 20 min, washed twice with PBS, permeabilized using 0.1% (v/v) Triton X-100 in PBS, Cells were blocked with 10% (v/v) FCS in PBS for 1-5 h at room temperature. Cells were incubated with primary antibodies diluted in 2% FCS (v/v) in PBS at 4° C. overnight. A list of the primary antibodies used in this study is provided as FIG. 28. After primary antibody incubation cells were washed twice with PBS followed by incubation with appropriate AlexaFluor-conjugated secondary antibodies diluted in PBS at room temperature for 1 h (1:1000; Molecular Fisher Scientific). After washing twice with PBS nuclei were stained using DAPI. After and additional 2 washing steps, fluorescence images of the cells were taken using an Olympus IX71 inverted microscope equipped with a Hamamatsu ORCA CCD camera.

pituitary-lineage cells [3] = assay: Dorsal-ventral patterning of pituitary cells, bulk qRT-PCR; conditions: day 60, patterned for 30 days
Experimental: as §1
Total RNA was extracted from at least 3 independent experiments using the TRIzol (Fisher Scientific) reagent in combination with Phase-lock tubes (5Prime) according to the manufactures protocol. 1 μg of total RNA was reverse transcribed into cDNA using iScript (BioRad). For quantitative RT PCR we used the SSoFast EvaGreen Mix (BioRad) in combination with QuantiTect primer assays (Qiagen) on a BioRad CFX96 Thermal Cycler. All reactions were run according to the manufacturer's protocol. Results are calculated using the ΔΔCt method (Livak and Schmittgen, 2001).

B1: BMP2: activator of BMP signaling, ventralizing agent (protein, UniProt P12643 283-396, looked up)
Bone morphogenetic protein 2: QAKHKQRKRLKSSCKRHPLYVDFSDVGWNDWIVAPPGYHAFYCHGECPFPLADHLNSTNHAIVQTLVNSVNSKIPKACCVPTELSAISMLYLDENEKVVLKNYQDMVVEGCGCR
cells expressing POMC (pituitary-lineage cells [1]; day 60, high concentration of factor): 40% | number of ACTH+ dorsal cell types (pituitary-lineage cells [1]; day 60, high concentrations): decreased the number of ACTH+ dorsal cell types | number of ventral cell types expressing FSHB and LHB (pituitary-lineage cells [1]; day 60, high concentrations): increased the number of ventral cell types expressing FSHB and LHB | hormone expressing cells by immunocytochemistry (pituitary-lineage cells [2]): FSH was the most abundant cell type | FSHB and LHB gene expression (pituitary-lineage cells [3]): significantly upregulated
